Experimental data reported in patent publication US4681856A, “Muramyldipeptide active ester derivatives” (Toshiyuki Hamaoka Daiichi Seiyaku Co., Ltd., priority 1983, dated 1987).

Test system: TNP-LSTRA syngeneic tumor cells
Assay type: cell-based, mouse
Conditions: TNP-LSTRA syngeneic tumor cells as target cells

## CCCC(=O)OC[C@H]1OC(N(C(C)=O)[C@@H](C)C(=O)N[C@H](CCC(=O)O)C(N)=O)[C@H](N)[C@@H](O[C@H](C)C(=O)O)[C@@H]1O (stereo partly drawn) [Example L4-MDP, 6-O-butyryl-N-acetylmuramyl-L-alanyl-D-isoglutamine]
  Existence of L4-MDP-reactive helper T cells in spleen cells of BCG-immunized mouse: similarly proved
